Legend:
Format in all cases: binding
μ receptor = biological target: T1, μ receptor (Rattus norvegicus, UniProt P33535); experiment: Radioreceptor assay selective for the mu receptor ([3H]-DAMGO); conditions: Table 10, rat brain homogenates
T1 construct: radioreceptor assay using rat brain homogenates and [^3 H]-DAMGO as radioligand; tissue Harlan Bioproducts for Science; host or cells: rat brain (cerebellum removed), crude membrane homogenate
Method: Following incubation, the suspensions were centrifuged as above, the resulting pellets resuspended in 100 volumes of Tris buffer and the suspensions combined. Membrane suspensions were prepared and used in the same day.
Binding assays were carried out in polypropylene tubes. […] Bound radioactivity was counted on a Beta-plate Liquid Scintillation Counter (Life Technologies, Gaithersburg, Md.) and expressed in counts per minute (cpm). […] Competitive inhibition assays were performed as above using serial dilutions of the peptide mixtures. IC50 values were then calculated using the software […] (ISI, San Diego, Calif.).

Sequences of proteins named here, by UniProt entry; tags and fusion partners are left off. A change or cut given only in a name is not applied to a line headed by its entry.
UniProt P33535, whole entry: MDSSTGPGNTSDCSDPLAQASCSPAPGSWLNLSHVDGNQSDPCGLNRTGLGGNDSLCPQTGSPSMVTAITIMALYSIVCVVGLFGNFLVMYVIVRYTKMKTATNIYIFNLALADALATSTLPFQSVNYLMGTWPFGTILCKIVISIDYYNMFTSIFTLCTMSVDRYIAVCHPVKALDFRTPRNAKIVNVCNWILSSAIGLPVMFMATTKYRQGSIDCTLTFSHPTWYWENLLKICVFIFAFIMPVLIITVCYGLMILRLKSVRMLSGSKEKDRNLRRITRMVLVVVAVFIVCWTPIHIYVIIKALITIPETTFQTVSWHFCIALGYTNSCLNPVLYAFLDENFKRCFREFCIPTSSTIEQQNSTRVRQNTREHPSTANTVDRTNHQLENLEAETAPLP
UniProt P41144: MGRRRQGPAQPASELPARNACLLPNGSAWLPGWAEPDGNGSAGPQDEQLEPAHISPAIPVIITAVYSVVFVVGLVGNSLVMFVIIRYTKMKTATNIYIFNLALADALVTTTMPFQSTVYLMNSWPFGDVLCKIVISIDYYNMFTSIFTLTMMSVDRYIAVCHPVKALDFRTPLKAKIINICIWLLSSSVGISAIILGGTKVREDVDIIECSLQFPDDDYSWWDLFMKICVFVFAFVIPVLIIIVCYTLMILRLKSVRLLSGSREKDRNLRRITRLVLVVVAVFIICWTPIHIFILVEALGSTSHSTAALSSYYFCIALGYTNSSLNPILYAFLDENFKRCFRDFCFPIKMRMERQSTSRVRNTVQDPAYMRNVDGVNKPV
UniProt P33533, whole entry: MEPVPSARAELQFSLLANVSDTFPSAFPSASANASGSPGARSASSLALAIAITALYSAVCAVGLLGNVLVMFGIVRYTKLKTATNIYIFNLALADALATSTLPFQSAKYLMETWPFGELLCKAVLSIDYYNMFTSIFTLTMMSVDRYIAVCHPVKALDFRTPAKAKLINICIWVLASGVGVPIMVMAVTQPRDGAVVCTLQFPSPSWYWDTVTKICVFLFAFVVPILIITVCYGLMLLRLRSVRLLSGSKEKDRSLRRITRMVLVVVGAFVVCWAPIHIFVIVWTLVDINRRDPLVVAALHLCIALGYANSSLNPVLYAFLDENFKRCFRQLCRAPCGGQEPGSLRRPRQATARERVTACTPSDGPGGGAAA

κ receptors = biological target: T2, κ receptors (Cavia porcellus, UniProt P41144); experiment: Radioreceptor assay selective for κ receptors ([3H]-U69,593); conditions: Table 10; [3H]-U69,593 3 nM, guinea pig brain homogenates
T2 construct: tissue homogenates prepared from guinea pig brains (cortex and cerebellum); tissue Harlan Bioproducts for Science; host or cells: guinea pig brain (cortex and cerebellum) homogenate
Method: Assays selective for κ receptors were carried out using [^3 H]-U69,593 (3 nM, specific activity 62 Ci/mmol) as the radioligand and tissue homogenates prepared from guinea pig brains (cortex and cerebellum) using Tris buffer containing 100 μM PMSF, 5 mMMgCl2 and 1 mg/ml BSA, pH 7.4. Sample tubes were incubated for 2.5 hr.

δ receptors = biological target: T3, δ receptors (Rattus norvegicus, UniProt P33533); experiment: Radioreceptor assay selective for δ receptors ([3H]-naltrindole); conditions: Table 10; [3H]-naltrindole 0.5 nM, rat brain homogenates
T3 construct: Radioreceptor assays selective for δ receptors were performed using rat brain homogenates; tissue Harlan Bioproducts for Science; host or cells: rat brain crude membrane homogenate
Method: Radioreceptor assays selective for δ receptors were performed using rat brain homogenates as above and [^3 H]-naltrindole (0.5 nM, specific activity 34.7 Ci/mmol) as radioligand in Tris buffer containing 100 μM phenylmethylsulfonyl fluoride (PMSF), 5 mMMgCl2 and 1 mg/ml bovine serum albumin (BSA), pH 7.4. Samples were incubated for 2.5 hr. Standard curves were prepared using 0.10-3200 nM [^3 H]-D-Pen2, Pen5 ]-enkephalin ([^3 H]-DPDPE).

For `C[C@@H](NC(=O)[C@@H](N)Cc1ccc(O)cc1)C(=O)NCC(=O)N(C)[C@@H](Cc1ccccc1)C(=O)NCCO` [DAMGO, [D-Ala^2, MePhe^4, Gly-ol^5]enkephalin, reference compound], which IC50 (μ receptor) is on record?
The IC50 was 3 nM.

What about the IC50 (κ receptors) of the same molecule?
The IC50 was 2530 nM.

What about the IC50 (δ receptors) of the same molecule?
The IC50 was 758 nM.
